This note sets out measurements from ChEMBL document CHEMBL4342404, “Anti-cholinesterase hybrids as multi-target-directed ligands against Alzheimer's disease (1998-2018)” (Bioorg Med Chem, 2019).

By UniProt entry, the sequences of proteins in these tests, tags left out. Where a name states a change or a piece, a line headed by the entry shows the natural chain unless it says otherwise.
UniProt Q9Y5N1: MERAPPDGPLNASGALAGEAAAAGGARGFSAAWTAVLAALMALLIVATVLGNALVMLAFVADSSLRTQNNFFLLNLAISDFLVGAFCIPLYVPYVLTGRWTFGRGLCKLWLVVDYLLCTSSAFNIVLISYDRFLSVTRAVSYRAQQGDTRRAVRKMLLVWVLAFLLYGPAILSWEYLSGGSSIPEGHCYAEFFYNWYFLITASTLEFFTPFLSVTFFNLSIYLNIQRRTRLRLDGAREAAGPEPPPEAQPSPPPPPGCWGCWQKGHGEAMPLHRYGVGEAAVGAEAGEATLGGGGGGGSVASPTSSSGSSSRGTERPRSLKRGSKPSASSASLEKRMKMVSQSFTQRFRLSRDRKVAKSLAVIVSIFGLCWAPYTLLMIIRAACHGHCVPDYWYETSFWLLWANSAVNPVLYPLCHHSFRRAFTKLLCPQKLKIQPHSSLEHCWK

For this test, the target named is Histamine H3 receptor (Homo sapiens, UniProt Q9Y5N1). As to the kind of experiment: biochemical.

pKi: −log10 of the molar value.

Take `O=C(c1ccc(OCCCc2cnc[nH]2)cc1)C1CC1` [CIPROXIFAN]: the pKi (usually −log10 of the Ki, conventionally taken in molar units) was 6.74 to 7.34.
